# Ab-14 heavy chain CDR variants: yeast mating affinities

Values reported by Engelhart et al. 2022, doi:10.1038/s41597-022-01779-4 (FLAb copy).

Target peptide (SARS-CoV-2 spike, HR2 region): PDVDLGDISGINAS

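The parent was found by panning a naive human phage display library on the peptide. In library AAYL49, one, two or three CDR residues were substituted; doubles and triples were drawn at random. In AlphaSeq, yeast of one mating type display the scFv and yeast of the other type display the target. Pairs that bind mate more often; barcode pairs of the diploids are counted by sequencing. Read counts were normalised to the haploid input and turned into Kd by a linear fit to BCL2-family pairs of known affinity, for each replicate. Mating was done three times.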

Each scFv is VH, a 15-residue (Gly4Ser)3 linker, VL, as in the parent Ab-14, and differs from it in the CDRs of the heavy chain only.
VH: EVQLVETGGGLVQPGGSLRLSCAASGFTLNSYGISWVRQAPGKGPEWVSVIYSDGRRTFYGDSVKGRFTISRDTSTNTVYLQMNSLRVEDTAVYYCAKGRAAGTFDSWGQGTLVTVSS
VL: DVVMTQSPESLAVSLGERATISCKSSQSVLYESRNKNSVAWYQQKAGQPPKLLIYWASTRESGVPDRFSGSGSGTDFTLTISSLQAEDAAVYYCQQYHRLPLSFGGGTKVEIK

Variants are written as CDR1, CDR2 and CDR3 of the heavy chain (limits as in the source). Parent: GFTLNSYGIS, VIYSDGRRTFYGDSVK, GRAAGTFDS.
Numbers give log10(Kd / nM), so 0 is 1 nM and 3 is 1 µM. Smaller is tighter.
Replicates are averaged; those with no signal do not enter the mean.
Where no diploid with the target was found in that replicate, the entry reads "ND": below detection, most likely a poor binder, though not proof of it.

CDR-H1,CDR-H2,CDR-H3,"log10 Kd, replicates",mean log10 Kd (nM),control signals
GFTLNSYGIS,MIYSDGGRTFYGDSVK,GMAAGTFDS,ND ND ND,ND,0 of 9
GFTLNSYGIS,RIYSDPRRTFYGDSVK,GRAAWTFDS,ND ND ND,ND,0 of 9
GFTLNSWGIS,VIYFDGRRTFYGDSVK,GRAAGTFES,ND ND ND,ND,0 of 9
GFTLNCYGIS,VIYSDGARTFYGDSVK,GRAAGTFDS,4.83 3.55 ND,4.19,0 of 9
GFQLNSYGIS,VIYSDGRRTFYGDSVK,GRGAGTFDS,2.44 1.96 2.79,2.40,2 of 9 (4.16)
GFTLNSYGIK,VIYSDGRRLFYGDSVK,RRAAGTFDS,ND ND ND,ND,0 of 9
GFTLPSYGIS,VIYSDQRYTFYGDSVK,GRAAGTFDS,ND 4.09 5.23,4.66,2 of 9 (4.06)
GFTLNSYGIG,VIYLDGRKTFYGDSVK,GRAAGTFDS,ND ND ND,ND,1 of 9 (3.41)
GFGLNSYGIS,VIYSDGWRTFYGDSVK,GRAAGTFCS,ND ND 4.21,4.21,1 of 9 (3.77)
GFTLNSYGIS,LIDSDGRRTFYGDSEK,GRAAGTFDS,ND ND ND,ND,0 of 9
GFTLNSYGIS,VIYSDGRRTFNGDSVK,KRAAGEFDS,ND ND ND,ND,0 of 9
GFTLSSYGIS,VIYSDGRRTFYVDSVN,GRAAGTFDS,2.11 1.79 1.90,1.93,3 of 9 (3.44)
GFTLNSYGPS,VIYSDGRRTFMGDSVK,GRAAGTFDR,ND ND 3.94,3.94,5 of 9 (4.53)
GFTLNSYGIS,QIYSHGRRTFYNDSVK,GRAAGTFDS,ND ND 5.79,5.79,3 of 9 (4.32)
DITQNSYGIS,VIYSDGRRTFYGDSVK,GRAAGTFDS,ND 4.04 ND,4.04,1 of 9 (4.85)
GFTLNSYGIS,VIYSDGRRTFYGDSVK,GRRAITFDS,1.62 1.55 1.92,1.70,2 of 9 (3.37)
GFTCWSYGIS,VIYSDGRATFYGDSVK,GRAAGTFDS,5.59 ND ND,5.59,0 of 9
GFTGNSYRIS,VIYSDGRRTFYGDSVK,GREAGTFDS,5.56 ND ND,5.56,1 of 9 (3.24)
GFTLNSYGGS,VAYSRGRRTFYGDSVK,GRAAGTFDS,ND 4.39 ND,4.39,1 of 9 (4.07)
MFTLNSYGIS,VIYSDGRRTFYGDSVK,GDAAGTFDS,1.82 1.88 1.75,1.82,3 of 9 (3.35)
GFTLNSYGIS,VIYSFGRRTFYGDSVK,GRAPTTFDS,4.88 ND ND,4.88,0 of 9
GFTLNSYGIS,VIYSDGRRTFYSDLVK,GRAVGTFDS,2.62 2.50 2.57,2.56,3 of 9 (4.67)
GVTLNSYGID,VIYSDGRRTFYGDSVK,GRAAGTFDS,ND 3.57 ND,3.57,2 of 9 (3.14)
GFTLNSYGIS,VIYSDGGRTFYGDSGQ,GRAAGTFDS,3.76 ND ND,3.76,2 of 9 (3.99)
GFTLNSYGIS,VIVSDGRRTFYGDIVK,GRAAGTFDL,ND ND ND,ND,1 of 9 (3.80)
GFTLISYGIS,VIYSDGRRTFYGDSVK,GRAAGTFDS,2.79 2.56 2.30,2.55,0 of 9
GFTLCSYGIS,VLYSDGERTFYGDSVK,GRAAGTFDS,3.69 3.49 ND,3.59,3 of 9 (4.67)
GFTLNSEGDS,VIYSDGRRTFYGDQVK,GRAAGTFDS,ND ND 4.05,4.05,2 of 9 (3.90)
GFTLNSQGIS,VIYSDGRRTFKGNSVK,GRAAGTFDS,ND ND ND,ND,1 of 9 (3.46)
GMTLNSYGIS,VIYSDGRRTFYGDSVK,GRAMGTFCS,2.19 1.93 3.24,2.45,0 of 9
GFTLNSYGIS,VPYSDGRHTFYGDSVK,GLAAGTFDS,ND 4.56 5.36,4.96,4 of 9 (3.87)
GFTLNPYGIS,VIYSDGRRTFYFDEVK,GRAAGTFDS,ND ND 4.34,4.34,1 of 9 (3.60)
GFTLNSYGIS,VYYSDGIRTFYGDSVK,GRAAGTFDS,4.26 4.60 ND,4.43,1 of 9 (2.44)
GFTLVSYGIS,VIYSDGRRTFIGDAVK,GRAAGTFDS,ND ND ND,ND,0 of 9
GFTLNSYGIS,VFCSDGRRTFYGDSVK,GRAAGTFDS,ND ND ND,ND,2 of 9 (5.11)
GFTLNLYEIS,PIYSDGRRTFYGDSVK,GRAAGTFDS,ND ND ND,ND,3 of 9 (3.61)

A selection of 5 entries from above:

CDR-H1,CDR-H2,CDR-H3,"log10 Kd, replicates",mean log10 Kd (nM),control signals
GFTLNSYGIS,VIVSDGRRTFYGDIVK,GRAAGTFDL,ND ND ND,ND,1 of 9 (3.80)
GFTLNSYGIS,VIYSDGRRTFNGDSVK,KRAAGEFDS,ND ND ND,ND,0 of 9
GFTLNSYGIS,VPYSDGRHTFYGDSVK,GLAAGTFDS,ND 4.56 5.36,4.96,4 of 9 (3.87)
GFTLNCYGIS,VIYSDGARTFYGDSVK,GRAAGTFDS,4.83 3.55 ND,4.19,0 of 9
GFTGNSYRIS,VIYSDGRRTFYGDSVK,GREAGTFDS,5.56 ND ND,5.56,1 of 9 (3.24)

Empty control strains, which show no peptide, gave a signal in 15% of pairings with library AAYL49; the median was 4.06 and 95% of these signals were weaker than 2.83. No background was subtracted. Also given: how often the same scFv was detected with the empty control strains, with their mean in brackets.
In this assay the parent's reference entry averaged 0.65; its copy inside this library read 4.11 (one replicate of three).